Measured values published in patent US20170130064A1, “NOVEL POLYSILOXANE-BASED FOULING-RELEASE COATS COMPRISING POLY(OXYALKYLENE)-MODIFIED ALCOHOLS” (HEMPEL A/S, priority 2014, published 2017).
Like-named read-outs stand apart in the source and are kept apart here. Marks after values point to notes of the source that are not given here.

Assays:
[1] = From supplier data sheet; cited from earlier work
[2] = Surface tension above critical micelle concentration in water (pendant drop method); type: physicochemical; settings: 5 wt % of the compound in demineralized water, picture 5 seconds after drop
Description: The surface tension of a liquid/air interface can be determined by the “pendant drop method” as described in “Encyclopedia of Surface and Colloid Science” by Marcel Dekker, 2002.
Samples were prepared as 5 wt % of the compound in demineralized water mixed in a 50 mL PE bottle. At 5 wt % it is ensured that concentrations are well above the critical micelle concentration. The samples were left over-night on a shaking table to ensure saturation and/or mixing. The measurements by “pendant drop method” were performed with DataPhysics OCA-15 pus, Dynamic Contact Angle, using software SCA202 V 4.5.8. The needle was a Disposable needle SNP-D 165/137, and the volume drop was 15 microliters.
The picture from which the surface tension is calculated is taken 5 seconds after the drop is forced out of the syringe.

| Substance | Surface tension [1] | Surface tension [2] [mN/m] |
| --- | --- | --- |
| PEG-9 octyl phenol | 30.8* mN/m |  |
| Poly(ethylene glycol) 400 [PEG-9] |  | 57 |
